SMILES strings stand for the structures.

Amino acid sequences for entries named in this document (tags omitted).
UniProt P33535, whole entry: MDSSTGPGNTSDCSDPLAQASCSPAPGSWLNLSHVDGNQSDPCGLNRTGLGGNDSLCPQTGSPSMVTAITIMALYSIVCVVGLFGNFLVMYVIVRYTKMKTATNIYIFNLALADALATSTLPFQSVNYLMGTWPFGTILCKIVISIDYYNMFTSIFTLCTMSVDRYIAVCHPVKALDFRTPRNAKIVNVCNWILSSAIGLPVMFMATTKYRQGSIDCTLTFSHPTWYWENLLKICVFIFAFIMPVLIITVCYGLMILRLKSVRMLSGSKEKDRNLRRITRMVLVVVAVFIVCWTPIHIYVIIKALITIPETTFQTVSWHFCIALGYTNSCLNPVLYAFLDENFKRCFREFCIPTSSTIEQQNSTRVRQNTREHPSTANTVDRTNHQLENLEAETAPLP

The target in the assay is T1, Mu Receptor (Rattus norvegicus, UniProt P33535).
T1 construct: radioreceptor assay using rat brain homogenates and [^3 H]-DAMGO as radioligand; tissue Harlan Bioproducts for Science (Indianapolis, Ind.); host or cells: rat brain without cerebellum, crude membrane homogenate
In kind it is binding.
For orientation: IC50 means the concentration at which inhibition is half-maximal. A lower IC50 goes with greater potency. In the case of `CCN(C(=O)[C@@H](N)Cc1ccccc1)[C@H](CCCCNCc1ccc2ccccc2c1)C(=O)NCc1ccc2ccccc2c1`, half-maximal inhibition (IC50) was put at 476 nM.
The value for `CCN(C(=O)[C@@H](N)Cc1ccccc1)[C@@H](CCCCNCc1ccc2ccccc2c1)C(=O)NCc1ccc2ccccc2c1` was 237 nM; that for `CCN(C(=O)[C@@H](N)Cc1ccccc1)[C@@H](CC(=O)N(Cc1ccc2ccccc2c1)Cc1ccc2ccccc2c1)C(=O)NCc1ccc2ccccc2c1` was 1110 nM.
As for `CCN(C(=O)[C@@H](N)Cc1ccccc1)[C@H](Cc1ccc(O)cc1)C(=O)NCc1ccc2ccccc2c1` [R-4-(hydroxy)benzyl], the figure is 542 nM; as for `CCN(C(=O)[C@@H](N)Cc1ccccc1)[C@H](Cc1c[nH]c2ccccc12)C(=O)NCc1ccc2ccccc2c1` [R-(indol-3-yl)methyl (Boc)], 1590 nM.
As for `CCN(C(=O)[C@@H](N)Cc1ccccc1)[C@@H](CCC(=O)O)C(=O)NCc1ccc2ccccc2c1` [S-(2-carboxy)eth-1-yl], the figure is 476 nM.
`CCN(C(=O)[C@@H](N)Cc1ccccc1)[C@@H](CC(C)C)C(=O)NCc1ccc2ccccc2c1` [S-(2-methyl)prop-1-yl] came in with an IC50 of 1490 nM.
As for `CCN(C(=O)[C@@H](N)Cc1ccccc1)[C@@H](Cc1ccc(O)cc1)C(=O)NCc1ccc2ccccc2c1` [S-(4-hydroxy)benzyl (2-BrZ)], the figure is 31 nM.
Compound `CCN(C(=O)[C@@H](N)Cc1ccccc1)[C@@H](CCC(=O)N(Cc1ccc2ccccc2c1)Cc1ccc2ccccc2c1)C(=O)NCc1ccc2ccccc2c1` [S-(N,N-di(napth-2-ylmethyl)amidoethyl] registered an IC50 of 585 nM.
The value for `CCN(C(=O)[C@@H](N)Cc1ccccc1)[C@@H](Cc1cn(Cc2ccc3ccccc3c2)c2ccccc12)C(=O)NCc1ccc2ccccc2c1` [S-(N-(napth-2-ylmethyl)indol-3-ylmethyl)] was 494 nM; that for `CCN(C(=O)[C@@H](N)Cc1ccccc1)[C@@H](Cc1ccc2ccccc2c1)C(=O)NCc1ccc2ccccc2c1` [S-(Napth-2-yl)methyl] was 1210 nM.

The values above are taken from patent US6121489A (priority 1997, dated 2000).
